US10294236B2, “Compounds as rearranged during transfection (RET) inhibitors” (GLAXOSMITHKLINE INTELLECTUAL PROPERTY DEVELOPMENT LIMITED, priority 2014, dated 2019)

Chains of the proteins cited; added tags and fusions are not shown. Residues count along the entry.
UniProt P07949, 658-1114 limits assumed: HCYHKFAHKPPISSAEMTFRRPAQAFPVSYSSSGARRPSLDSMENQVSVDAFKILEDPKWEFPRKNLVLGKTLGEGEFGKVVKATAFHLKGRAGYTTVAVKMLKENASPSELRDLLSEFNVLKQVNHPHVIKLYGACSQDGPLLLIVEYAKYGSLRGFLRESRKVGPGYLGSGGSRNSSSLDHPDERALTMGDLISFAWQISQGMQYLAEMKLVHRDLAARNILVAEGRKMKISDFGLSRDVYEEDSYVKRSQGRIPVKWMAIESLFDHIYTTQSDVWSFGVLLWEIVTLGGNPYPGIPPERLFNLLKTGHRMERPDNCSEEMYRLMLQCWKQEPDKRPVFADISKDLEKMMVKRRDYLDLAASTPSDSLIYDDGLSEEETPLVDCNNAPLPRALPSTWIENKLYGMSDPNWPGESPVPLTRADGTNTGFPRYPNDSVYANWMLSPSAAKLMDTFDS

Target: Human RET kinase cytoplasmic domain (Homo sapiens, UniProt P07949)
Assay: RET kinase enzymatic assay
Details: read-out: RET IC50

CCOc1cc(-c2ccc(NC(=O)Nc3ccc(CC4(C)COC4)c(C(F)(F)F)c3)c(F)c2)c[nH]c1=O
IC50: < 100 nM
